{"source": "patent US8741944B2", "about": "“Anti-infective agents against intracellular pathogens” (priority 2007, dated 2014)", "tested_on": "PC-3 cells", "experiment": "Apoptosis analysis in PC-3 cells (DNA fragmentation ELISA, PARP cleavage)", "format": "cell-based, human", "settings": "concentrations greater than […]"}
{"smiles": "N=C(N)Nc1ccc(-n2nc(C(F)(F)F)cc2-c2ccc3c(ccc4ccccc43)c2)cc1", "values": [{"measurement": "potency in apoptosis induction compared with compound 59", "result": "higher potency than compound 59"}]}
